# scFv variants of Ab-95 (light chain) against a SARS-CoV-2 spike peptide

The measurements come from Engelhart et al. 2022 (doi:10.1038/s41597-022-01779-4) through the FLAb antibody collection.

Target: peptide PDVDLGDISGINAS, taken from heptad repeat 2 (HR2) of SARS-CoV-2 spike.

Parent: Ab-95, a human scFv built as VH, a 15-residue (Gly4Ser)3 linker, VL. Only the CDRs of the light chain vary.
VH: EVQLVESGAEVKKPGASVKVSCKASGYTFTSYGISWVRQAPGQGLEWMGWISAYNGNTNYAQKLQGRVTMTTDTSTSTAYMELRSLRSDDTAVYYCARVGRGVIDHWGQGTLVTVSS
VL: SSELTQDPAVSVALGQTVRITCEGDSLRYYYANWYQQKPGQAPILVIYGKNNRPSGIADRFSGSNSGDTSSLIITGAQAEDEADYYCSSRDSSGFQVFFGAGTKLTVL

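Phage display of a naive human antibody library on the peptide gave the parent. In library AAYL52, one, two or three CDR residues were substituted; doubles and triples were drawn at random. Affinity was read by AlphaSeq, a pooled yeast mating assay with surface-displayed partners. Mating (16 h, 30 °C) was followed by selection of diploids and sequencing of their barcodes. The ratio of observed to expected reads was calibrated, replicate by replicate, on BCL2-family standards whose Kd was known from biolayer interferometry. Mating was done three times.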

Variants are written as CDR1, CDR2 and CDR3 of the light chain (limits as in the source). Parent: EGDSLRYYYAN, GKNNRPS, SSRDSSGFQVF. Every variant below is changed at L27 of the VL (sequential numbering). Numbers give log10(Kd / nM), so 0 is 1 nM and 3 is 1 µM. Smaller is tighter. Replicates are averaged; those with no signal do not enter the mean. "nd" marks a missing value. The strain was present, yet no cells mated with the target were sequenced in any replicate, which points to weak or no binding. Empty control strains, which show no peptide, gave a signal in 28% of pairings with library AAYL52; the median was 3.91 and 95% of these signals were weaker than 2.90. No background was subtracted. For reference, the parent read 2.31 as the reference entry and 2.25 as a member of this library.

- EGDSYRYYYAN, GPNNRPS, SSRDSSGFQVQ = 1.58 (3 of 3 replicates)
- EGDSNRYYYAN, GKNNRPS, SSRDSSGFQVF = 3.55 (3 of 3 replicates)
- RGDSCRYYYAN, GKNNYPS, SSRDSSGFQVF = 4.28 (1 of 3 replicates)
- EGDSYRYYYWN, GKNNRPS, SSYDSSGFQVF = 5.08 (2 of 3 replicates)
- EGDQGRYYYAN, GKNNRPS, SSRDSSGFQVF = 3.82 (2 of 3 replicates)
- EGDSCIYYYAN, GKNNRPS, SSRDSSRFQVF = nd (0 of 3 replicates)
- EGDSVRYYYAN, EKNNRAS, SSRDSSGFQVF = 4.10 (2 of 3 replicates)
- EGDSDRYYYAN, GKFERPS, SSRDSSGFQVF = 4.43 (2 of 3 replicates)
- HGDSMRYTYAN, GKNNRPS, SSRDSSGFQVF = 1.64 (3 of 3 replicates)
- EWDSIRYYYAN, GKNNRPS, SSRDSSGFQVH = 4.27 (2 of 3 replicates)
- ETDSWRYYYAN, GKNNRPS, SSRDSSGFQFF = 4.51 (2 of 3 replicates)
- EGDSVRYYYAN, GKNNRDE, SSRDSSGFQVF = 4.40 (2 of 3 replicates)
- EGDSDRYYYAN, GKNNRPD, MSRDSSGFQVF = 2.91 (3 of 3 replicates)
- EGDSWRYRYAN, GKNNRPS, SSSDSSGFQVF = 4.41 (3 of 3 replicates)
- EGDSTRYKYAN, GKNNYPS, SSRDSSGFQVF = 3.13 (1 of 3 replicates)
- EGDSDRYLYAN, GKNNRPS, SSRDSSGFQVF = 3.26 (3 of 3 replicates)
- EKDSYRYYYAN, GKNNRPS, SSRDSSAFQVF = 5.08 (1 of 3 replicates)
- EGDSQRYYYAN, GKNNRPS, SSRDASGFQVF = 2.87 (3 of 3 replicates)
- EGDSMRYYYAN, GKNNRPS, SSRDSIGFQQF = 3.10 (2 of 3 replicates)
- PGDSMRYYYAN, GKNNRPS, SSSDSSGFQVF = 3.36 (3 of 3 replicates)
- EGDSFTYYYAN, GKNKRPS, SSRDSSGFQVF = 3.19 (3 of 3 replicates)
- EGDSDRYYYAN, YKNNRPS, SSRDSSGFQVT = 5.17 (2 of 3 replicates)
- EGDSGRYYYAN, GKNNGPS, SSRDSSGFQVW = nd (0 of 3 replicates)
- EPDSVRYYYAM, GKNNRPS, SSRDSSGFQVF = 1.59 (3 of 3 replicates)
- EGDSHRYYYAL, GKHNRPS, SSRDSSGFQVF = 4.69 (2 of 3 replicates)
- EGDSQRYYYAN, GKNNYPS, SSRDSSGFQVF = nd (0 of 3 replicates)
- EGDCKRYYYAN, GKNNRPS, SSRDSSGFQVF = 2.97 (1 of 3 replicates)
- EGDSSRYYYAN, GKNNRYS, SSRDVSGFQVF = 3.96 (2 of 3 replicates)
- EGDSDRYYYAN, GYNNRPS, SSRDSSGFQVF = 3.76 (3 of 3 replicates)
- EGDSIRYYCAN, GKNNRPS, SSRDSSEFQVF = 3.72 (2 of 3 replicates)
- EGSSGRYYYAN, GKNNRPS, SSRDSDGFQVF = 2.20 (3 of 3 replicates)
- EGDSKRYYYAN, IKNNRIS, SSRDSSGFQVF = 4.01 (2 of 3 replicates)
- EGDSIRYMYAN, GKNNRPS, SSRDSSGEQVF = 3.19 (3 of 3 replicates)
- EGDYWRYYYAN, GKYNRPS, SSRDSSGFQVF = 4.14 (1 of 3 replicates)
- EADSARYYYAN, GKNNRPS, SSRDSSGFQVF = 3.13 (2 of 3 replicates)
- EGDSCRYYYAN, GKNNRPM, SSRDSDGFQVF = 4.48 (1 of 3 replicates)
- EGDSRRYYYAN, GKNNRRS, SSRDSSGFQMF = nd (0 of 3 replicates)
- EGDSHRYYYAN, GKNNRPS, SSKDSSTFQVF = 4.33 (1 of 3 replicates)
- EGDSFRYYYGN, GKNNRPS, SSRDDSGFQVF = 3.63 (2 of 3 replicates)
- EGDSHRWYYAN, GKNNRPS, SARDSSGFQVF = 3.89 (2 of 3 replicates)
- EGDSWRYYYAN, GKNNFPS, SSRDSSGFQMF = 5.32 (1 of 3 replicates)
- EGDSTRYYYAN, GKNNTPS, SSRDSSIFQVF = 4.20 (2 of 3 replicates)
- EGDSARYYYAN, GKDNRPS, SSRDSSGIQVF = 4.44 (1 of 3 replicates)
- EGFSMRYYYAN, GKNNVPS, SSRDSSGFQVF = 3.25 (2 of 3 replicates)
- EGRSRRYYYAN, GKNNRPS, SSRDSSGFQRF = nd (0 of 3 replicates)
- EGDSHRYYYAN, GKNNRPP, SSRDSSGFQVF = 4.34 (2 of 3 replicates)

The closing 8 entries, repeated:

CDR-L1,CDR-L2,CDR-L3,"mean, log10 nM",detected
EGDSFRYYYGN,GKNNRPS,SSRDDSGFQVF,3.63,2/3
EGDSHRWYYAN,GKNNRPS,SARDSSGFQVF,3.89,2/3
EGDSWRYYYAN,GKNNFPS,SSRDSSGFQMF,5.32,1/3
EGDSTRYYYAN,GKNNTPS,SSRDSSIFQVF,4.20,2/3
EGDSARYYYAN,GKDNRPS,SSRDSSGIQVF,4.44,1/3
EGFSMRYYYAN,GKNNVPS,SSRDSSGFQVF,3.25,2/3
EGRSRRYYYAN,GKNNRPS,SSRDSSGFQRF,nd,0/3
EGDSHRYYYAN,GKNNRPP,SSRDSSGFQVF,4.34,2/3